{
  "source": "ChEMBL document CHEMBL4145659",
  "about": "“Discovery of a Series of Indole-2 Carboxamides as Selective Secreted Phospholipase A2 Type X (sPLA2-X) Inhibitors” (ACS Med Chem Lett, 2018)",
  "key": {"[1]": {"target": "T1, Group 10 secretory phospholipase A2 (Homo sapiens, UniProt O15496)", "T1 sequence (O15496 whole entry)": "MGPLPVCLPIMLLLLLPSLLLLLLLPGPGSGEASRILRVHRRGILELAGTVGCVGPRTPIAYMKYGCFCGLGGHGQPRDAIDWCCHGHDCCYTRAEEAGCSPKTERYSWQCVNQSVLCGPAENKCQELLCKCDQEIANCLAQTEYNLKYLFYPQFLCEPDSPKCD", "assay": "Inhibition of recombinant human sPLA2-10 expressed in Escherichia coli BL21(DE3) using HDL as substrate pretreated for 20 mins followed by substrate addition and measured after 60 mins"}, "[2]": {"target": "T2, Phospholipase A2, membrane associated (Homo sapiens, UniProt P14555)", "T2 sequence (P14555 whole entry)": "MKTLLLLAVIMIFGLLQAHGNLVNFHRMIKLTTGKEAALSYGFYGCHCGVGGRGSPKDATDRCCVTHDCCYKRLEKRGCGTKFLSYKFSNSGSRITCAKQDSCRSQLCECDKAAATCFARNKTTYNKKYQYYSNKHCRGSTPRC", "assay": "Inhibition of recombinant human sPLA2-2A expressed in Escherichia coli BL21(DE3) using 1-palmitoyl-2-oleoyl-sn-glycero-3-phosphocholine as substrate pretreated for 20 mins followed by substrate addition and measured after 60 mins"}},
  "data": [
    {"smiles": "CCc1c(C(=O)C(N)=O)c2c(OCC(=O)O)cccc2n1Cc1ccccc1", "note": "[VARESPLADIB]", "values": [
      {"measurement": "IC50", "setting": "[1]", "value": 150, "unit": "nM"},
      {"measurement": "IC50", "setting": "[2]", "value": 12, "unit": "nM"}
    ]}
  ]
}
